Reference: patent US20240207300A1, “COMBINATION THERAPIES INCLUDING MYT1 INHIBITORS” (Repare Therapeutics Inc., priority 2021, published 2024)

Chains of the proteins cited; added tags and fusions are not shown.
UniProt Q99640, whole entry: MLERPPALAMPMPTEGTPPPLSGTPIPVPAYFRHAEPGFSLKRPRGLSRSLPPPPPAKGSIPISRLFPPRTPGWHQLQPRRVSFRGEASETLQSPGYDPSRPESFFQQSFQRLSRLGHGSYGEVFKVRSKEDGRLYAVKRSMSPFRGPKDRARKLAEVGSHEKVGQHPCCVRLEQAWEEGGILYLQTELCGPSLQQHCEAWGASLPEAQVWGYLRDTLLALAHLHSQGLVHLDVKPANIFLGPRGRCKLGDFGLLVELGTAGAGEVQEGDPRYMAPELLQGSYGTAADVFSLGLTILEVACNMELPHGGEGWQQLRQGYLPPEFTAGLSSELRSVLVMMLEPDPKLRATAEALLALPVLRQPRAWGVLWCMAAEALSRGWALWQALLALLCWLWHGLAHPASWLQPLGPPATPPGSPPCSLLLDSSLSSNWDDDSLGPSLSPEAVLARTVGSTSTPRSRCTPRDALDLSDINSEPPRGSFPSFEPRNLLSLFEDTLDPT

These molecules were tested against recombinant human Myt1 (Homo sapiens (Human), UniProt Q99640) (assay: Recombinant human Myt1 kinase ADP-Glo enzymatic assay). Details: read-out: Myt1 IC50, recombinant human Myt1 18 nM, ATP 10 μM.
Type: biochemical
In the case of `C#Cc1cnc2c(n1)c(C(N)=O)c(N)n2-c1c(C)ccc(O)c1C`, the IC50 is reported as under 0.01 µM.
With `CCc1cnc2c(n1)c(C(N)=O)c(N)n2-c1c(C)ccc(O)c1C` the IC50 was under 0.01 µM.
Molecule `Cc1ccc(O)c(C)c1-n1c(N)c(C(N)=O)c2nc(C3(C(F)(F)F)CC3)cnc21` [Compound 200] has an IC50 of over 2 µM.
For `Cc1ccc(O)c(C)c1-n1c(N)c(C(N)=O)c2nc(C(C)C)cnc21`, the IC50 was under 0.01 µM.
